From PMC13347698 (Analytical Chemistry, 2026)

Key:
[1] = biological target: T1, native SARS-CoV-2 3CL^pro (Severe acute respiratory syndrome coronavirus 2, UniProt P0DTD1)
[2] = biological target: T1, native SARS-CoV-2 3CL^pro; remark: listed apart in the source
[3] = biological target: wild-type 3CL^pro (Severe acute respiratory syndrome coronavirus 2, UniProt P0DTD1); format: binding, SARS-CoV-2

O=C(Nc1ccc(N(Cc2ccsc2)C(=O)Cn2nnc3ccccc32)cc1)C1CC1 [ML300]
inhibition mode [1]: predominantly competitive
α parameter [1]: 17 ± 3
binding kinetics (fast or slow-binding) [2]: fast
covalent or noncovalent inhibition [2]: noncovalent
inhibition at 0.80 μM inhibitor [2]: no inhibition was detectable
tight or nontight binding [2]: nontight
n (binding stoichiometry per 3CL^pro monomer) [3]: 1.1 ± 0.1
